Assay results taken from ChEMBL document CHEMBL1147952.

Experiments:
[1] = ABTS radical scavenging activity at 200 ppm; assay type: functional
[2] = DPPH radical scavenging activity at 200 ppm; assay type: functional

Structure (SMILES): O=C1O[C@H]([C@@H](O)CO)C(O)=C1O
- Activity [1]: 89%
- Activity [2]: 88%
